Results published in US20090074876A1, “PEPTIDE COMPOSITION AND A METHOD OF PROMOTING CARTILAGE FORMATION” (Acologix, Inc., priority 2007, published 2009).

Test system: human mesenchymal stem cells (hMSC)
Experiment: proliferation assay with human mesenchymal stem cells, tritiated thymidine incorporation
Format: cell-based
Conditions: as compared to the vehicle
Method: The peptide of SEQ ID NO:34 was tested for its proliferation activity on human mesenchymal stem cells as compared to CMP-2 and IGF-1.
The same protocol and positive controls were used in this experiment.
SEQ ID NO:34 was selected for this experiment since the amino acid sequence of this peptide was derived from the corresponding region in rat and mouse MEPE where AC-100 was derived from human MEPE. Furthermore, as compared to all other known mammalian corresponding regions to AC-100, it is the least homologous to AC-100 (the human sequence).
The degree of activities was very similar among these three materials.

B1: BMP-2: Bone Morphogenetic Protein-2, positive control in hMSC proliferation assay (protein, UniProt P12643 283-396, looked up)
Bone morphogenetic protein 2: QAKHKQRKRLKSSCKRHPLYVDFSDVGWNDWIVAPPGYHAFYCHGECPFPLADHLNSTNHAIVQTLVNSVNSKIPKACCVPTELSAISMLYLDENEKVVLKNYQDMVVEGCGCR
  proliferation activities of the hMSC by tritiated-thymidine incorporation: Significant proliferation activities
